{
  "source": "patent US7098246B2",
  "about": "“Natural compounds and their derivatives for the prevention and treatment of cardiovascular, hepatic and renal diseases and for cosmetic applications” (Puleva Biotech, S.A., priority 2002, dated 2006)",
  "assay": "Absorption of hydroxytyrosol and derivatives administered orally in mice (hydroxytyrosol in plasma)",
  "details": "oral, oily solution, equivalent amounts (10 mg II, 13 mg III, 70 mg IX)",
  "excerpt": "Plasma was isolated from each blood sample by extraction with ethyl acetate and analysed by gas chromatography-mass spectometry.",
  "data": [
    {"substance": "2-(3,4-distearyloxyphenyl) ethyl stearate [IX]", "values": [
      {"measurement": "Hydroxytyrosol in plasma, 15 min.", "setting": "15 min", "result": "not detected"},
      {"measurement": "Hydroxytyrosol in plasma, 60 min.", "setting": "60 min", "result": 0.44, "unit": "mg/L"}
    ]}
  ]
}
